Data reported in US12691093B2 (THE TRUSTEES OF INDIANA UNIVERSITY, priority 2020, dated 2026).

Assays:
[1] = test system: orthotopic MC38-derived tumors; settings: mouse, in vivo
Psmd4 = Psmd4 (UniProt O35226); settings: bacterially expressed purified mouse Psmd4
26S immunoproteasome = 26S immunoproteasome (Mus musculus, UniProt O35226)
[2] = test system: CRC patient-derived tumor organoids; settings: compared to control PDOs; organoid dissociation and tumor cell death
CT26-derived tumors = assay: Subcutaneous CT26 tumor model in BALB/c mice; settings: mouse, in vivo
MC38-derived tumors = assay: Subcutaneous MC38 tumor model in C57BL/6 mice; settings: mouse, in vivo

With `C=C1CCCC2(C)C=C3OC(=O)C(C)=C3CC12` (stereo not drawn) [ATT-I, atractylenolide I] the “anti-tumor effect (weight of cecal wall implanted tumors)” value [1] was “significantly enhanced the anti-tumor effects”, the “effect on organoids without addition of OT-I cells” value (MC38-OVA tumor organoids) was “no notable effect” and the “killing of tumor organoids by OT-I cells” value (MC38-OVA tumor organoids) was “markedly enhanced killing”. The Kd (Psmd4) was 400 nM, the “effect on immunoproteasome activity after knockdown of PSMD4” value (26S immunoproteasome) was “abolished the effect of ATT-I” and the “vulnerability of PDOs to autologous CD8+ T cell killing” value [2] was “more vulnerable to CD8+ T cell killing”. The tumor growth (CT26-derived tumors) was “modest effects”, the “additional benefit from ATT-I in the combination therapy with PD-1” value (MC38-derived tumors) was “completely disappeared” and the tumor growth (MC38-derived tumors) was “modest effects”.
